TDP1 inh: TDP1 (human) enzyme inhibition | Q9NUW8 | recombinant TDP1, AlphaScreen DNA substrate cleavage | Potency, µM (series often up to 130 µM), for inactives: at the highest dose activity change, negative = inhibition, most hits filed as inhibitors | hit rate 0.28% among 350,000; also: potency is read from the fitted curve at half-maximal effect; % is scaled to controls: 0 for no effect and ±100 for the full control effect; nearly all actives have a fitted effect of over 40% in size
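AlphaScreen read-out: signal falls as enzyme removes the 3' tyrosine-FITC from a 5'-biotinylated DNA oligo (15 nM, 5 min, RT). Enzyme was E. coli-made recombinant Tdp1 at 1 nM, exposed to compound for 15 min beforehand; beads 10 ug/ml, 10 min.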
miR-21 FLuc: raises the signal of a miR-21 reporter; HeLa miR-21 FLuc reporter, luciferase, 48 h; Potency, µM (top dose mostly 38.3 µM), for inactives: at the highest dose reporter change, positive = more light; AID 2288; 340,000 tested, under 10 active; active = well fitted rising curve with a large enough effect; inconclusive = small, poorly fitted or top-dose-only effect; inactive = no such curve, though single readings can be large or run the other way;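 note: % of control where 0% means no effect; miR-21 action dims this reporter so a rising signal means less miR-21 action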
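Compounds were titrated across several concentrations (up to approximately 40 uM) and incubated 48 hours with HeLa miR-21-FLuc reporter cells (miR-21 target sequence downstream of FLuc, endogenous miR-21). Readout was firefly luciferase luminescence after lytic detection reagent.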
TDP1 cell noCPT: qHTS for Inhibitors of human tyrosyl-DNA phosphodiesterase 1 (TDP1): qHTS in cells in absence of CPT; hit rate 15% among 420,000; DT40 Tdp1-/- hTDP1 cells, no CPT, ATP luminescence, 48 h; AID 686978, 2013; Potency, µM (top dose mostly 46.2 µM), without a hit: at the top dose activity change, negative = growth inhibition, actives largely listed as inhibitors; also: potency is read from the fitted curve at half-maximal effect; % is scaled to controls: 0 for no effect and ±100 for the full control effect; nearly all actives have a fitted effect of over 55% in size
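DT40 Tdp1-/-;hTDP1 cells, no CPT (DMSO vehicle only), 400 cells/well; compounds pin-transferred; ≥48 hr, 37 °C; CellTiter-Glo 30 min RT dark, luminescence read.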
DT40 TDP1 CPT: DT40-hTDP1 cell growth loss with CPT | chicken DT40 Tdp1-/-;hTDP1 cells + 20 nM CPT, ATP luminescence, 48 h | Potency, µM (top dose mostly 46.2 µM), for the others: top-dose activity change, negative = growth inhibition, usual class: inhibitors | hit rate 12% among 420,000 | AID 686979; also: potency is read from the fitted curve at half-maximal effect; % is scaled to controls: 0 for no effect and ±100 for the full control effect; nearly all actives have a fitted effect of over 55% in size
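Cell growth measured by CellTiter-Glo luminescence after a minimum 48 h, 37 C compound exposure with 20 nM CPT in Tdp1-knockout DT40 cells stably expressing hTDP1, seeded 400/well; qHTS titration format.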
uPA surface inh: inhibitors of cell surface uPA generation. Potency, µM (highest dose often 38.3 µM), inactives show at the top dose activity change, negative = inhibition, usual class: inhibitors. AID 540303. cell surface uPA generation assay, qHTS. hit rate 0.31% among 330,000; active = well fitted inhibition curve with a large enough effect; inconclusive = small, poorly fitted or top-dose-only effect; inactive = no such curve, though single readings can be large or run the other way; tested in mouse RAW 264.7 cells; also: potency is read from the fitted curve at half-maximal effect; % is scaled to controls: 0 for no effect and ±100 for the full control effect; nearly all actives have a fitted effect of over 55% in size
* = called active by the depositor; ? = inconclusive; nt = no result; [ ] = remark or other dose. Sampled rows, rich in hits. Any-hit rate of the full collection: about 16%. Unless noted, calls follow the shape of the dose curve; as a rule, active = well fitted curve in the direction sought with a large enough effect; inconclusive = small, poorly fitted or top-dose-only effect, or another doubt; inactive = no such curve, though single readings can be large; an effect the other way counts as inactive or inconclusive.

Key to letters – A = TDP1 inh; B = miR-21 FLuc; C = TDP1 cell noCPT; D = DT40 TDP1 CPT; E = uPA surface inh
O=c1c2ccccc2c(=O)n(Cc2ccccc2)n1Cc1ccccc1
  A: 0.0% | B: -14.0% | C: -17.8% | D: 6.2% | E: -0.4%
c1ccc(Cn2c[n+](Cc3ccccc3)c3ccccc32)cc1
  A: 3.8% | B: 19.2% | C: 2.91µM* | D: 3.26µM* | E: -12.7%
CN(C)CCCNC(=O)c1cc2sc3ccccc3c2s1
  A: 7.7% | B: ? | C: ? | D: ? | E: -3.8%
CN(C)CCNc1ccc2ncn3c4ccc(O)cc4c(=O)c1c23
  A: nt | B: nt | C: 0.0231µM* | D: 0.0517µM* | E: -10.7%
CCOC(=O)c1cnc2ccc(Cl)cc2c1NCCN(C)C
  A: -1.6%[56.1 µM] | B: -42.2% | C: ? | D: -3.0% | E: 1.7%
COc1ccc2c(=O)c3ccccc3oc2c1
  A: nt | B: -51.9% | C: ? | D: ? | E: ?
COc1ccc2oc3cc(NCCN(C)C)ccc3c(=O)c2c1
  A: nt | B: nt | C: 25.9µM* | D: ? | E: nt
COc1ccc2sc3cccc(NCCN(C)C)c3c(=O)c2c1
  A: nt | B: nt | C: 10.3µM* | D: 13µM* | E: nt
CN(C)CCNc1ccc(CO)c2sc3ccc(O)cc3c(=O)c12
  A: nt | B: nt | C: 0.146µM* | D: 0.0259µM* | E: -8.8%
COc1cccc2sc3ccc(NCCC4CCCN4C)cc3c(=O)c12 (centres undefined)
  A: nt | B: -27.9% | C: ? | D: ? | E: -21.8%
CN1CCN(c2ncc3nc(-c4cccs4)c(=O)n(-c4ccccc4)c3n2)CC1
  A: nt | B: nt | C: 10.6% | D: 1.0% | E: nt
COc1ccc(OC)c(NC(=O)Cn2cc(S(=O)(=O)c3ccccc3)c(=O)c3cc(C)ccc32)c1
  A: -1.3% | B: -1.0% | C: 1.8% | D: 10.9% | E: nt
COC(=O)C(F)(Sc1c(C)n(C)n(-c2ccccc2)c1=O)C(F)(F)F (centres undefined)
  A: 6.8% | B: -2.6% | C: -11.9% | D: -25.1% | E: 12.6%
CCOc1ccc(NC(=O)Nc2cccn(Cc3ccccc3)c2=O)cc1
  A: 3.5% | B: 1.0% | C: 14.6µM* | D: ? | E: nt
Cc1ccc(NC(=O)NCc2cccn2Cc2ccccc2)cc1F
  A: 4.5% | B: 2.3% | C: -7.7% | D: -9.8% | E: nt

Key to letters – A = TDP1 inh; B = miR-21 FLuc; C = TDP1 cell noCPT; D = DT40 TDP1 CPT; E = uPA surface inh
CCOC(=O)Cc1ccc(NC(=O)NCc2cccn2Cc2ccccc2)cc1
  A: 9.7% | B: 6.3% | C: 20.6µM* | D: 13µM* | E: nt
CCOc1ccc(NC(=O)Nc2ccccc2SC)cc1
  A: 0.0% | B: -52.7% | C: 23.1µM* | D: ? | E: nt
CSc1ccc(NC(=O)Nc2cccn(Cc3ccccc3F)c2=O)cc1
  A: 2.8% | B: -4.6% | C: 25.9µM* | D: ? | E: -8.8%
O=C(COC(=O)Cc1ccccc1F)Nc1cccc(S(=O)(=O)NC2=NCCCCC2)c1
  A: -0.6% | B: 0.9% | C: -0.7% | D: -24.5% | E: nt
CCCN(CC(=O)Nc1ccccc1C)C(=O)c1ccc(N2CCCC2=O)cc1
  A: 0.5% | B: nt | C: 0.0% | D: -6.9% | E: -6.5%
CCc1ccc2c(c1)c(N=NC1=NC(=O)CS1)c(O)n2C
  A: 3.9% | B: 1.2% | C: 16.4µM* | D: -27.6% | E: 2.1%
Cc1cc(C)c2[nH]c(O)c(N=NC3=NC(=O)CS3)c2c1
  A: 2.6% | B: -17.5% | C: ? | D: -13.1% | E: 7.3%
COc1ccc(CCNC(=O)c2cnc3sc(N4CCOCC4)nn3c2=O)cc1
  A: -3.9% | B: -4.9% | C: ? | D: ? | E: nt
CC(=O)n1c(Cl)c(NC(=O)CCl)c2ccccc21
  A: 8.8% | B: ? | C: 11.6µM* | D: 10.3µM* | E: -25.9%
Cc1cc(C)c2oc(-c3cccc(NC(=O)COc4ccc(Cl)cc4C)c3C)nc2c1
  A: nt | B: nt | C: -0.9% | D: 5.01µM* | E: nt
CCCOc1ccc(C(=O)Nc2ccc(Cl)c(-c3nc4ncccc4o3)c2)cc1
  A: 3.8%[2.28 µM] | B: 6.7% | C: 10.3µM* | D: 23.1µM* | E: nt
Cc1ccc2oc(-c3cccc(NC(=O)COc4ccc(Cl)cc4C)c3C)nc2c1
  A: nt | B: nt | C: -19.2% | D: -0.4% | E: nt
Cc1ccc(OCC(=O)Nc2ccc(Cl)c(-c3nc4ncccc4o3)c2)c(C)c1
  A: 4.7% | B: -6.0% | C: 14.6µM* | D: ? | E: nt
Cc1cc(C)cc(OCC(=O)Nc2ccc(Cl)c(-c3nc4ncccc4o3)c2)c1
  A: 2.1% | B: 1.0% | C: ? | D: 18.4µM* | E: nt
O=C(Nc1ccc(C(=O)OCc2cc(=O)n3c4c(sc3n2)CCCC4)cc1)c1cccc(F)c1
  A: 3.8% | B: 0.0% | C: ? | D: ? | E: nt

Key to letters – A = TDP1 inh; B = miR-21 FLuc; C = TDP1 cell noCPT; D = DT40 TDP1 CPT; E = uPA surface inh
COc1cccc(N2C(=O)C3CCCN3C2c2cccs2)c1 (centres undefined)
  A: -8.1% | B: -11.9% | C: -16.8% | D: -18.1% | E: -2.2%
CC[N+](C)(CC)CCOC(=O)C(O)(c1ccccc1)C1CCCCC1 (centres undefined)
  A: 2.7% | B: -5.4% | C: ? | D: ? | E: ?
CC[N+](C)(CC)CCC(c1ccccc1)C1CCCCC1 (centres undefined)
  A: nt | B: 13.4% | C: ? | D: 8.2µM* | E: -9.3%
Cc1cc2oc3ccc(NCCCn4ccnc4)cc3c(=O)c2cc1C
  A: nt | B: nt | C: 14.6µM* | D: ? | E: ?
Cc1cc2oc3ccc(NCCCN4CCOCC4)cc3c(=O)c2cc1C
  A: nt | B: nt | C: 13µM* | D: 10.3µM* | E: 5.0%
Cc1ccc(C2c3c(oc4cc(C)c(C)cc4c3=O)C(=O)N2CCCN2CCOCC2)cc1 (centres undefined)
  A: 3.1% | B: -5.2% | C: ? | D: ? | E: 0.8%
Cc1ccc(SCCC(=O)Nc2ccccc2C(=O)NC2CCCCC2)cc1
  A: -8.1% | B: -7.5% | C: -20.4% | D: 11.3% | E: 3.1%
Cc1c(N2C(=O)CSC2=S)c(=O)n(-c2ccccc2)n1C
  A: -4.6% | B: -4.2% | C: ? | D: ? | E: 5.3%
Cc1c(N2C(=O)c3ccc4c5c(ccc(c35)C2=O)CC4)c(=O)n(-c2ccccc2)n1C
  A: 17.8µM* | B: -3.3% | C: ? | D: ? | E: 6.1%
O=C(OCc1ccccc1)c1ccc(Br)o1
  A: 3.1% | B: -8.1% | C: -28.8% | D: -9.6% | E: 4.7%
CCOc1ccc(NC(=O)CSc2nnc(-c3ccccc3Cl)n2Cc2ccco2)cc1
  A: 8.8% | B: 6.3% | C: 18.4µM* | D: 20.6µM* | E: -0.3%
COc1ccc(NC(=O)CSc2ncc(-c3ccc(F)cc3)n2Cc2ccco2)cc1
  A: 7.5% | B: 21.0% | C: 15.8µM* | D: 12.6µM* | E: 0.3%
CCC(=O)Nc1cc(NC(=O)CSc2ncc(-c3ccc(F)cc3)n2Cc2ccco2)ccc1C
  A: 8.3% | B: -38.0% | C: 6.2% | D: -14.1% | E: 3.7%
O=C(CSc1ncc(-c2ccc(F)cc2)n1Cc1ccco1)Nc1nccs1
  A: 3.7% | B: -0.5% | C: 20.6µM* | D: ? | E: -8.7%
COc1ccc(-c2cnc(SCC(=O)Nc3nc(C(C)(C)C)cs3)n2Cc2ccco2)cc1
  A: 9.2% | B: 11.8% | C: 20.6µM* | D: ? | E: -2.8%

Profiles from above. Order of screens: TDP1 inh	miR-21 FLuc	TDP1 cell noCPT	DT40 TDP1 CPT	uPA surface inh
`CCOc1ccc(NC(=O)CSc2nnc(-c3ccccc3Cl)n2Cc2ccco2)cc1` is listed as 8.8%	6.3%	18.4µM*	20.6µM*	-0.3%
`Cc1c(N2C(=O)CSC2=S)c(=O)n(-c2ccccc2)n1C` is listed as -4.6%	-4.2%	?	?	5.3%
`Cc1c(N2C(=O)c3ccc4c5c(ccc(c35)C2=O)CC4)c(=O)n(-c2ccccc2)n1C` is listed as 17.8µM*	-3.3%	?	?	6.1%

Additional entries.
Key to letters – A = TDP1 inh; B = miR-21 FLuc; C = TDP1 cell noCPT; D = DT40 TDP1 CPT; E = uPA surface inh
CCc1nc(Cl)c(C#N)c2c1CSC(C)(C)C2
  A: 0.6% | B: -11.8% | C: -25.5% | D: -28.4% | E: -17.2%
CCOC(=O)C(C)Oc1ccc(NC(=O)C(Cl)Cl)cc1 (centres undefined)
  A: nt | B: 11.3% | C: -2.3% | D: 21.1% | E: -2.1%
Cc1cnc(NC(=O)CSc2ncc(-c3ccccc3)n2Cc2ccco2)s1
  A: 12.9% | B: 22.3% | C: ? | D: 18.4µM* | E: -2.2%
COc1ccc(-c2cnc(SCC(=O)Nc3cc(C)on3)n2Cc2ccco2)cc1
  A: 11.0% | B: -6.9% | C: ? | D: -17.4% | E: -8.2%

Compound activity (PubChem)
